# Test results published in PubChem BioAssay (EPA / NIEHS).
# Only a part is listed here, and it is no random draw. Active and inactive are the calls of the source. How the source made its calls: active means hit-call score of the fitted dose curve at least 0.9, where 1 is the maximum; inactive means score below 0.9.
# Assay: ATG_PPRE_CIS: Attagene CIS-FACTORIAL HepG2 Assay for human Peroxisome Proliferator-activated Response Element (PPRE) (AID 2282958)
# Settings: HepG2 PPRE cis-element reporter, Attagene transcription factor profiling; actives raise or lower the signal
# Protocol: ATG_CIS is a cell-based, multiplexed-readout assay that uses HepG2, a human liver cell line, with measurements taken at 24 hours after chemical dosing in a 24-well plate.ATG_PPRE_CIS is one of 52 assay component(s) measured or calculated from the ATG_CIS assay. It is designed to make measurements of mRNA induction, a form of inducible reporter, as detected with fluorescence intensity signals by Reverse transcription polymerase chain reaction (RT-PCR) and Capillary electrophoresis technology.Data from the assay component ATG_PPRE_CIS was analyzed into 1 assay endpoint. This assay endpoint, ATG_PPRE_CIS, was analyzed with bidirectional fitting relative to DMSO as the negative control and baseline of activity. Using a type of inducible reporter, measures of mRNA for gain or loss-of-signal activity can be used to understand the reporter gene at the transcription factor-level as they relate to the gene PPARA and PPARD and PPARG. Furthermore, this assay endpoint can be referred to as a primary readout, because this assay has produced multiple assay endpoints where this one serves a reporter gene function. To generalize the intended target to other relatable targets, this assay endpoint is annotated to the nuclear receptor intended target family, where the subfamily is non-steroidal.
# Human liver HepG2 cells are transiently transfected with multiple reporter transcription units (MRTUs) in 6-well plates using FuGene 6 reagent (Roche; 3 ml FuGene/1 mg DNA). The MRTU constructs are regulated by a cis-regulating element (promoter). […] A major difference between the CIS and TRANS system is that in CIS activities of endogenous TFs are measured, whereas the TRANS assay evaluates changes in activities of exogenous, chimeric NR-Gal4 proteins. […] At the end of 24 hour incubation, total RNA was isolated using TriZol reagent (Invitrogen). The isolated RNA is then reverse-transcribed using oligo(dT) primer and Mo-MLV reverse transcriptase (Invitrogen) with DNAse I (Ambion) treatment for 30 min. The one-tenth of the produced cDNA was amplified by PCR using Taq DNA polymerase (Invitrogen) and two reporter sequence-specific primers. The PCR products were fluorescently labeled by primer extension with 6-arboxyfluorescein (6-FAM) 5'-labeled reporter sequence-specific primer (2 min at 95 C, 20 s at 68 C and 10 min at 72 C) and these products were digested with 5U of HpaI (New England Biolabs) for 2h at 37 C. The fragments were purified using Qiaquick PCR columns (Qiagen), analyzed on an ABI 3130xL genetic analyzer (Applied Biosystems) with peak positions identified by using a set of X-rhodamine (ROX)-labeled MapMarker1000 molecular weight standards (BioVentures). The raw capillary electrophoresis data was processed using Attagraph software (Attagene).
row,SMILES,outcome
1,O=P(Cl)(Oc1ccccc1)Oc1ccccc1,inactive
2,O=[p+]1oc2ccccc2c2ccccc21 (configuration not stated),inactive
3,CCCCC(CC)CO[P+](=O)OCC(CC)CCCC (configuration not stated),inactive
4,O=[N+]([O-])c1ccc([N+](=O)[O-])cc1,inactive
5,O=C(Cl)OCCOC(=O)Cl,inactive
6,ClP(Cl)c1ccccc1,inactive
7,O=C1C2CC=CCC2C(=O)N1SC(Cl)(Cl)C(Cl)Cl (configuration not stated),inactive
8,CCCCOP(OCCCC)OCCCC,inactive
9,CC(C)CCCCCCCOP(OCCCCCCCC(C)C)Oc1ccccc1,inactive
10,O=[As]c1ccccc1 (configuration not stated),inactive
11,O=[P+](Oc1ccccc1)Oc1ccccc1,inactive
12,O=C(Cl)Oc1ccccc1,inactive
